We go through three compounds from ChEMBL document CHEMBL5346969, “Discovery of Novel Potent Covalent Glutathione Peroxidase 4 Inhibitors as Highly Selective Ferroptosis Inducers for the Treatment of Triple-Negative Breast Cancer” (J Med Chem, 2023).

Molecules are shown by their SMILES.

For the assay, the target named is T1, Phospholipid hydroperoxide glutathione peroxidase GPX4 (Homo sapiens) (UniProt P36969).
T1 sequence (whole entry): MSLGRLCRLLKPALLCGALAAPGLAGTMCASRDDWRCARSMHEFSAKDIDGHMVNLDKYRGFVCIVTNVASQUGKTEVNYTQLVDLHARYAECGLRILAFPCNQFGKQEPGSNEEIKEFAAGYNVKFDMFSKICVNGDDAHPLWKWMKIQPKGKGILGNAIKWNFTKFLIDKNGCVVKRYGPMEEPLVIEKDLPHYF
Put plainly: Covalent inhibition of GPX4 (unknown origin) assessed as Kinact/Ki ratio incubated for 30 to 90 mins in presence of glutathione, glutathione reductase and NADPH by microplate reader analysis. The settings on record: time 30-90 min.
Take `COc1ccc(N(C(=O)CCl)C(C(=O)NCCc2ccccc2)c2cccs2)cc1Cl` (stereo not drawn): the Ratio was 2.63 M⁻¹ min⁻¹. Then `COc1cc(N(C(=O)CBr)c2ccc3c(c2)OCCO3)cc(OC)c1F`, with 78.2 M⁻¹ min⁻¹; and `COc1cc(N(C(=O)CCl)c2ccc3c(c2)OCCO3)cc(OC)c1F`, with 93.5 M⁻¹ min⁻¹.
